Values quoted from earlier work as cited in patent US5026728A, “Treatment of arthritis and inflammation using N,N-dimethylglycine” (Foodscience Corporation, priority 1989, dated 1991).

Settings: cited from earlier work

Compound: CN(C)CC(=O)O [DMG-HCl]
- acute LD50 (intraperitoneal): 6 g/kg
- acute LD50 (oral, neutralized aqueous solution, rat): 7.4 g/kg of body weight

Where a name gives a salt, the structure may show the parent alone. Read-outs that look alike come from different tables or passages of the source.
